Where “and” joins values, the source holds several entries; their conditions need not be identical. Equal values may be shown once. The entries are a selection whose mix differs from that of the whole data set. Some results for these compounds are left out of this collection, so the calls shown say nothing about other tests. Inconclusive results are not listed. Calls of active or inactive are those of the source. Calls follow the shape of the dose curve; as a rule, active = well fitted inhibition curve with a large enough effect; inconclusive = small, poorly fitted or top-dose-only effect; inactive = no such curve, though single readings can be large or run the other way.
Each compound was assayed against Bromodomain adjacent to zinc finger domain protein 2B (Homo sapiens) (UniProt Q9UIF8) (assay: qHTS Assay for Inhibitors of BAZ2B). Settings: AlphaScreen BAZ2B-H3K14Ac peptide displacement; at 114 µM (top of the series) unless noted.
% is scaled to controls: 0 for no effect and ±100 for the full control effect.
Also: nearly all actives have a fitted effect of over 60% in size.

Protein sequences, listed by entry. Tags and fused reporters are not part of them.
UniProt Q9UIF8, whole entry: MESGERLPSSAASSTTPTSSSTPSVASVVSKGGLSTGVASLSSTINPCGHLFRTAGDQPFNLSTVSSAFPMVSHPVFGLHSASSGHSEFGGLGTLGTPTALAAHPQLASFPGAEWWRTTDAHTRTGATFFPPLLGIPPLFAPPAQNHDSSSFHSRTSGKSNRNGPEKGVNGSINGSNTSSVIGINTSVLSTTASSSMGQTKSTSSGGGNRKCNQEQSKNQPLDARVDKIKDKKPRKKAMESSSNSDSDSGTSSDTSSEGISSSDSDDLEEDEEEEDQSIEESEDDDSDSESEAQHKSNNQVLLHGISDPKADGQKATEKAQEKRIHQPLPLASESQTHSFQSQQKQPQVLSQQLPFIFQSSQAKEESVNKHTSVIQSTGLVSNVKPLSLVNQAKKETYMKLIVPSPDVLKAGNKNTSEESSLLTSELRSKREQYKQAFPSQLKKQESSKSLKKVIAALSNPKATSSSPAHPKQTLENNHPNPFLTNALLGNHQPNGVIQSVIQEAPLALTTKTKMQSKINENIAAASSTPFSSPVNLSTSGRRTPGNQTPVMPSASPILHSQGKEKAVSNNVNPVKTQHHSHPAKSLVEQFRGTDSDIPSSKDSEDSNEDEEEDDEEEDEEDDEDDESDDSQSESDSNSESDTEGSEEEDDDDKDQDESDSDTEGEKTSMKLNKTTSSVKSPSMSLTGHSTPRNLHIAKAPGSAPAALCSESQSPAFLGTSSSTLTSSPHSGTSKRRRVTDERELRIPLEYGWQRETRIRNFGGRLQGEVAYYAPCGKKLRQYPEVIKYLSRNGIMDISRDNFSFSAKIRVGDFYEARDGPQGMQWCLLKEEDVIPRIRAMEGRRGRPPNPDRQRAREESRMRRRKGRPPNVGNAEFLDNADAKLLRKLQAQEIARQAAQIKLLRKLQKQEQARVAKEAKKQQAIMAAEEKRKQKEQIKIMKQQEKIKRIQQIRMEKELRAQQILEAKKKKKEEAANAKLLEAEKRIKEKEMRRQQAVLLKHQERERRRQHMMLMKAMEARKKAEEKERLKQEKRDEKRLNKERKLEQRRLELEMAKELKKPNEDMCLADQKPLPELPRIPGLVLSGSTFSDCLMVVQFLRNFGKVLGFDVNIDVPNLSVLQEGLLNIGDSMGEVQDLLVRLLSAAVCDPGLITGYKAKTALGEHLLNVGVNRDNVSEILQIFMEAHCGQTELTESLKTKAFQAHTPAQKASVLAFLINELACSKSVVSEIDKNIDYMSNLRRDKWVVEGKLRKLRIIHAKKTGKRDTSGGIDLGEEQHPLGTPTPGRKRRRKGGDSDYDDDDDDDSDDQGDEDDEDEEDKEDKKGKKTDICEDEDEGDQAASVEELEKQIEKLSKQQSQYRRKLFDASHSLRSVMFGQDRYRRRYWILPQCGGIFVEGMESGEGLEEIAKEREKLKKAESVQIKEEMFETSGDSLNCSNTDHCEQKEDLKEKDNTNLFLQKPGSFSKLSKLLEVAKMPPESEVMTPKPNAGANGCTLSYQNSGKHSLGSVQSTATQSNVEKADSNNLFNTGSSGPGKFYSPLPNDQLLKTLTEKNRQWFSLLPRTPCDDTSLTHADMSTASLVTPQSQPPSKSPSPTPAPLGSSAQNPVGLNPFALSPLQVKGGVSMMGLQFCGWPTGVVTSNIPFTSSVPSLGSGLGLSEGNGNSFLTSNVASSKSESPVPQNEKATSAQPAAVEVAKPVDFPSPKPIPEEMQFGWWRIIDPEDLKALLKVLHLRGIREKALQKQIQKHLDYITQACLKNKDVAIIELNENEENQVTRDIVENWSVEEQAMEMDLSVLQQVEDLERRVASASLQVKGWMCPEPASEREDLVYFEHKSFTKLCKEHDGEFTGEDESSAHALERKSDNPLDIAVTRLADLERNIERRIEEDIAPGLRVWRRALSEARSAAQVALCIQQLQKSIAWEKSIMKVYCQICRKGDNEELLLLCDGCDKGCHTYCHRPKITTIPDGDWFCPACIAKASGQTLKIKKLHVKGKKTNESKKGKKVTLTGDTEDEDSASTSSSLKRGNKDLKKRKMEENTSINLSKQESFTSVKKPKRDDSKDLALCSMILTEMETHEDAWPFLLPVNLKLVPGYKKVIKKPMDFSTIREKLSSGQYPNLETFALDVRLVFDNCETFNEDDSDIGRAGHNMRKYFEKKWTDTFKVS

Structure (SMILES) | activity change, negative = inhibition
O=C(NCC1(N2CCCCC2)CCCCC1)c1cc([N+](=O)[O-])ccc1Cl | inactive: 10.5%
CN1[C@@H]2CC[C@H]1CC(OC(=O)C(O)(c1ccccc1)c1ccccc1)C2 (some centres not stated) | inactive: -0.117%
CCN(CC)CC(C)C(C)OC(=O)C(O)(c1ccccc1)c1ccccc1 (configuration not stated) | inactive: 0.838%
CN(C)C1(CNC(=O)c2cccc(Cl)c2)CCCCC1 | inactive: -1.96%
COc1cc(SC)ccc1C(=O)NCC1(N(C)C)CCCCC1 | inactive: 8.94%
CC(C)N1C(=O)CC2(CCN(CCOC(=O)C(O)(c3ccccc3)c3ccccc3)CC2)C1=O | inactive: 1.16% [at 57.1 µM]
Cc1ccc(C(=O)NCC2(N3CCCCC3)CCCCC2)cc1 | inactive: -12.1%
CN(C)C1(CNC(=O)c2ccccc2F)CCCCC1 | inactive: -1.6%
Cc1ccccc1C(=O)NCC1(N2CCCCC2)CCCCC1 | inactive: -11.5%
CN(C)C1(CNC(=O)c2ccccc2[N+](=O)[O-])CCCCC1 | inactive: -31.1%
CN(C)c1ccc(C(=O)NCC2(N(C)C)CCCCC2)cc1 | inactive: 3.86%
CN(C)C1CCCC1OC(=O)C(O)(c1ccccc1)c1ccccc1 (configuration not stated) | inactive: 4.92%
CCCCOc1ccccc1C(=O)NCC1(N(C)C)CCCCC1 | inactive: -12.2%
O=C(NCC1(N2CCCCC2)CCCCC1)c1cc(F)c(F)cc1Cl | inactive: 4.65%
COc1ccc(C(=O)NCC2(N(C)C)CCCCC2)cc1 | inactive: -30.1%
CCOc1cccc(C(=O)NCC2(N(C)C)CCCCC2)c1 | inactive: -0.738%

Structure (SMILES) | activity change, negative = inhibition
CCN1CCCC(OC(=O)C2(O)c3ccccc3C=Cc3ccccc32)C1 (configuration not stated) | inactive: 6.59%
Cc1cc(C(=O)NCC2(N3CCCCC3)CCCCC2)ccc1[N+](=O)[O-] | inactive: -14.1%
O=C(NCC1(N2CCCCC2)CCCCC1)c1cccc(Br)c1 | inactive: 4.92%
CN(C)C1(CNC(=O)c2ccc(Br)cc2)CCCCC1 | inactive: -26.3%
COc1cc(C(=O)NCC2(N(C)C)CCCCC2)c([N+](=O)[O-])cc1OC | inactive: -1.46%
COc1cccc(C(=O)NCC2(N3CCCCC3)CCCCC2)c1 | inactive: -2.2%
COc1ccc(Cl)cc1C(=O)NCC1(N(C)C)CCCCC1 | inactive: 11.7%
COc1ccc(C(=O)NCC2(N(C)C)CCCCC2)cc1Cl | inactive: -2.93%
O=C(NCC1(N2CCCCC2)CCCCC1)c1cccc(Cl)c1 | inactive: -5.63%
O=C(OC1CN2CCC1CC2)C(CO)(c1ccccc1)c1ccccc1 (configuration not stated) | inactive: -3.91%
CC(C)COc1ccc(C(=O)NCC2(N(C)C)CCCCC2)cc1 | inactive: -10.1%
Cc1cccc(C(=O)NCC2(N(C)C)CCCCC2)c1 | inactive: 0.971%
COc1cc(C(=O)NCC2(N(C)C)CCCCC2)cc(OC)c1OC | inactive: 1.91%
COc1ccc(Br)c(C(=O)NCC2(N3CCCCC3)CCCCC2)c1 | inactive: -4.69%
CC(C)Oc1ccc(C(=O)NCC2(N(C)C)CCCCC2)cc1 | inactive: -5.47% and inactive: -25.8%
CN(C)c1cccc(C(=O)NCC2(N(C)C)CCCCC2)c1 | inactive: 4.91%

— PubChem BioAssay AID504333 (National Center for Advancing Translational Sciences (NCATS), 2011)
